Experimental data published in US4900730A, “Preparation which promotes the absorption of peptides” (priority 1981, dated 1990).

Experiment: Rectal circulation: Cephalothin disappeared by absorption (Examples 10-14, 16-18)
Settings: for Cephalothin disappeared by absorption, Osmotic pressure X 4: four-fold tonic; for Cephalothin disappeared by absorption, Osmotic pressure X 1: isotonic
Protocol: The experiments were conducted similarly as in Example 1. […] Each sample was diluted and the quantity of Cephalothin disappeared was determined by UV-spectrophotometer of high-speed liquid chromatography.

[1] = Table 12, acid compound 0.1 W/V%, Example 10 repeated
[2] = Table 8, promoter 0.1 W/V %, as in Example 10

| Substance | Cephalothin disappeared by absorption, Osmotic pressure X 4 [1] [percents] | Cephalothin disappeared by absorption, Osmotic pressure X 1 [1] [percents] | Cephalothin disappeared by absorption, Osmotic pressure X 4 [2] [percents] | Cephalothin disappeared by absorption, Osmotic pressure X 1 [2] [percents] | Cephalothin disappeared by absorption, Osmotic pressure X 2 (Table 8, promoter 0.1 W/V %, as in Example 10, two-fold tonic) [percents] |
| --- | --- | --- | --- | --- | --- |
| glycero-3-phosphoric acid | 11.5 | 4.0 | – | – | – |
| 1-naphthol-3,6-disulfonic acid [NDS] | – | – | 31.6 | 12.6 | 19.8 |
